This experiment addresses VEGF dual dAb (human). Kind of experiment: SPR; ProteOn GLM chip; VEGF dual dAb alone or in complex with VEGF-165 immobilised by amine coupling; C1q injected at 1-256 nM; 25 °C, HBS-N + 10 mM CaCl2; equilibrium model. Background: SPR reads the build-up and loss of mass on a sensor chip optically.

Chains of the proteins cited; added tags and fusions are not shown. Chains listed by the source or under a name are the forms on record and can include a tag or linker. Residues count along the entry.
UniProt P02745, 23-245: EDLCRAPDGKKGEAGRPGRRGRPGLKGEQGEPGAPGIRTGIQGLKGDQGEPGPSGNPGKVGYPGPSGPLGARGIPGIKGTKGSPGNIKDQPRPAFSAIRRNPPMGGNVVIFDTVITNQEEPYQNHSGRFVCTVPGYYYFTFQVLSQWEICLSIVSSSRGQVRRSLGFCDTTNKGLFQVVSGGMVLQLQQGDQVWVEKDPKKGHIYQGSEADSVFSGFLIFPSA
Human C1q, UniProt P02746, 28-253: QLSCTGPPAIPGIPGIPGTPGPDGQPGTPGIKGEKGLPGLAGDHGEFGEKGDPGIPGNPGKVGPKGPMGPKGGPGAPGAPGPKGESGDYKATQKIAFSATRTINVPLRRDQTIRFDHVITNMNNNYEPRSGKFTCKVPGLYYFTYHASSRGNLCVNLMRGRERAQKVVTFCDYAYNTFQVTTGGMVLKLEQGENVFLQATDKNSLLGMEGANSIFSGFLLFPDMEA
Human C1q, UniProt P02747, 29-245: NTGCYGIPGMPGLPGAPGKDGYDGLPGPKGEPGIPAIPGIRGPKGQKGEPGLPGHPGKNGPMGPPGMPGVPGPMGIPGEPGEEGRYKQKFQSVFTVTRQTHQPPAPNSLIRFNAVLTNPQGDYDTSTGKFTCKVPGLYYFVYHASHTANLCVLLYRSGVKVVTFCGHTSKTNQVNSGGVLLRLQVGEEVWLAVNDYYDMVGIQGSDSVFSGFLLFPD
VEGF dual dAb (human), light, as listed by the source, chain 2 of 2: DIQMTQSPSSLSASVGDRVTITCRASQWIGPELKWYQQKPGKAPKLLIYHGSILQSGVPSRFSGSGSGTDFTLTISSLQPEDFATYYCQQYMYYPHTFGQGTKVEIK
VEGF dual dAb (human), heavy, as listed by the source, chain 1 of 2: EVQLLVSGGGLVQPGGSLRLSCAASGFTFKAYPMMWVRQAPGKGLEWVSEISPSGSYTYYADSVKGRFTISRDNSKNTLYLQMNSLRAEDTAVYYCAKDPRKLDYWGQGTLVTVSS

By Kd is commonly meant the equilibrium constant for the complex coming apart. Consider “Human C1q (from UniProt P02745 23-245; P02746 28-253; P02747 29-245) (complex)”, for which the Kd was found to be 7.51 nM.

Source of the values: PMC4786692.
